In patent publication US9132136B2, “Pharmaceutical combination” (HOFFMANN-LA ROCHE INC., priority 2010, dated 2015):

Test: 14-day treatment in rats: body weight gain, fat mass (MR relaxometry), food intake
Settings: 14 days, olanzapine 2 mg/kg p.o.

Cc1cc2c(s1)Nc1ccccc1N=C2N1CCN(C)CC1 [olanzapine, reference compound]
fat mass content: increase
